Source: patent US20230277612A1, “SAPONIN DERIVATIVES FOR USE IN MEDICINE” (priority 2020, published 2023)

Key:
Format in all cases: cell-based
HSP27 mRNA [1] = experiment: HSP27 mRNA gene silencing analysis in A431 cells
Excerpt: (§1) RNA from cells was isolated and analysed according to standard protocols (Biorad). qPCR primers that were used are indicated in Table A10.

human red blood cells = conditions: read-out: IC50 hemolytic activity
Method: Red blood cells (RBCs) were isolated from a buffy coat using a Ficoll gradient. The obtained RBC pellet (˜4-5 ml) was washed 2× with 50 ml DPBS (without Ca^2+/Mg^2+, PAN-Biotech GmbH). Cells were pelleted by centrifugation for 10 min, 800×g at RT. RBC were counted and resuspended at 500.000.000 c/ml in DPBS (without Ca^2+/Mg^2+), based on total cell count.
(§2) Saponin dilutions were prepared in DPBS (with Ca^2+/Mg^2+, PAN-Biotech GmbH), at 1.11× final strength. For positive lysis control a 0.02% Triton-X100 solution was prepared in DPBS^+/+. Of all compound solutions 135 μl was dispensed/well in a 96 well V-bottom plate. To this 15 μl RBC suspension was added and mixed shortly (10 sec-600 rpm). The plate was incubated 30 min at RT, with gentle agitation. Afterwards the plate was spun for 10 min at 800×g to pellet the RBC and 100-120 μl supernatant was transferred to a standard 96 wp (96 well-plate).
as §2, with “DPBS+/+.” for “DPBS^+/+.”, “Afterwards the plate was spun for 10 min at 800×g to pellet the RBC and 100-120 μl supernatant was transferred to a standard 96 wp (96 well-plate).” left out

HSP27 mRNA [2] = experiment: HSP27 mRNA gene silencing analysis in SK-BR-3 cells; conditions: in the presence of 4000 nM SO1861-Ald-EMCH
Excerpt: as §1

With “cetuximab-HSP27BNA: cetuximab conjugated to the HSP27BNA (DAR1.5 or DAR4)” the IC50 (HSP27 mRNA [1]; conjugate alone or + 100 nM SO1861-Ald-EMCH) was > 0.1 µM and the IC50 (HSP27 mRNA [1]; in the presence of 4000 nM SO1861-Ald-EMCH) was 0.0005 µM.

In the case of “cetuximab-SO1861 (DAR4): antibody-SO1861 conjugate”, the IC50 (human red blood cells) is reported as > 60 µM.

With “trastuzumab-HSP27BNA: trastuzumab conjugated to the HSP27BNA (DAR4.4)” the IC50 (HSP27 mRNA [2]) was 0.0005 µM.

Work on “trastuzumab-SO1861 (DAR4): antibody-SO1861 conjugate” yielded an IC50 (human red blood cells) of 200 µM.
